The source of these data is ChEMBL document CHEMBL5346864, “Identification of L. infantum trypanothione synthetase inhibitors with leishmanicidal activity from a (non-biased) in-house chemical library” (Eur J Med Chem, 2022).

Assay [1] relates to Leishmania infantum. The assay can be described thus: Inhibition of N-terminal His6-tagged recombinant Leishmania infantum promastigotes (MCAN/ES/89/IPZ229/1/89) TryS expressed in Escherichia coli BL21(DE3) Rossetta assessed as apparent Vmax of GspdSH using GspdSH, GSH and ATP as substrate at 4 uM measured after 30 mins by BIOMOL Green reagent based assay.
Assay [2] has as its system Leishmania infantum. Briefly: Inhibition of N-terminal His6-tagged recombinant Leishmania infantum promastigotes (MCAN/ES/89/IPZ229/1/89) TryS expressed in Escherichia coli BL21(DE3) Rossetta assessed as apparent Vmax of GspdSH using GspdSH, GSH and ATP as substrate at 4.8 uM measured after 30 mins by BIOMOL Green reagent based assay.
Assay [3] concerns Leishmania infantum. Briefly: Inhibition of N-terminal His6-tagged recombinant Leishmania infantum promastigotes (MCAN/ES/89/IPZ229/1/89) TryS expressed in Escherichia coli BL21(DE3) Rossetta assessed as apparent Vmax of GspdSH using GspdSH, GSH and ATP as substrate at 5.8 uM measured after 30 mins by BIOMOL Green reagent based assay.
Assay [4] concerns Leishmania infantum. The assay can be described thus: Inhibition of N-terminal His6-tagged recombinant Leishmania infantum promastigotes (MCAN/ES/89/IPZ229/1/89) TryS expressed in Escherichia coli BL21(DE3) Rossetta assessed as apparent Vmax of GspdSH using GspdSH, GSH and ATP as substrate at 6.9 uM measured after 30 mins by BIOMOL Green reagent based assay.
Assay [5] has as its system Leishmania infantum. Briefly: Inhibition of N-terminal His6-tagged recombinant Leishmania infantum promastigotes (MCAN/ES/89/IPZ229/1/89) TryS expressed in Escherichia coli BL21(DE3) Rossetta assessed as apparent Vmax of GspdSH using GspdSH, GSH and ATP as substrate at 8.3 uM measured after 30 mins by BIOMOL Green reagent based assay.

Molecules are shown by their SMILES.

In the case of `CCCCCCCCCCCCCCOc1ccc(C[N+](C)(C)C2CCCC2)cc1OC`, the Vmax(app) was determined as 0.012 µM/s in the assay with Leishmania infantum [1]; 0.009 µM/s in the assay on Leishmania infantum [2]; 0.006 µM/s in the assay on Leishmania infantum [3]; 0.004 µM/s with Leishmania infantum [4]; 0.004 µM/s with Leishmania infantum [5].
